Literature values, collected in PMC9917132, “Tenebrio molitor as a Simple and Cheap Preclinical Pharmacokinetic and Toxicity Model” (International Journal of Molecular Sciences, 2023).

Tested on: Mice
Settings: cited from earlier work

CC1(C)S[C@@H]2[C@H](NC(=O)[C@H](N)c3ccc(O)cc3)C(=O)N2[C@H]1C(=O)O [Amoxicillin]
LD50 Mice ip: 3590 mg/kg
